## Antibody variant affinities, Ab-14 light chain, assay B

The measurements come from Li et al. 2023 (doi:10.1038/s41467-023-39022-2) through the FLAb antibody collection.

Target: peptide PDVDLGDISGINAS, taken from heptad repeat 2 (HR2) of SARS-CoV-2 spike.

Parent scFv Ab-14: VH joined to VL by a (GGGGS)3 linker. Changes lie in the light chain CDRs alone.
VH: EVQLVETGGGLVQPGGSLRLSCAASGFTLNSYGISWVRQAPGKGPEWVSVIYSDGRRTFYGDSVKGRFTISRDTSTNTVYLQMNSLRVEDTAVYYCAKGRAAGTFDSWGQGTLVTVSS
VL: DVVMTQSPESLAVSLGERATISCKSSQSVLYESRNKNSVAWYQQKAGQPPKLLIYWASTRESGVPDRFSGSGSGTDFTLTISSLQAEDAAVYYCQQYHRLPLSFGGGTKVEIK

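The starting antibody came from a phage panning campaign against this peptide. The variants were designed computationally from a first round of random CDR variants and then made and measured. Their group label is 14L_GP_Gen (GP: Gaussian process model; Gen: genetic algorithm; a sequence that several methods proposed may carry one label only). In AlphaSeq, yeast of one mating type display the scFv and yeast of the other type display the target. Pairs that bind mate more often; barcode pairs of the diploids are counted by sequencing. Scores were corrected for input abundance and mapped to Kd with protein pairs of known affinity run in the same pool. There are six technical replicates.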

Positions count from residue 1 of the parent VL; S25V puts V in place of S.
The read-out is the apparent dissociation constant on a log10 scale (nM): the lower, the stronger.
A pair that was not seen in that replicate is written "nd"; this usually means weak binding, but a binder can also be missed.

changes,"log10 Kd, replicates",signal with controls
S25V N35V W56D,0.01 / -0.03 / -0.02 / -0.18 / -0.03 / -0.02,2 of 18 (3.58)
S25V S26D W56E,-0.32 / -0.41 / -0.37 / -0.33 / -0.51 / -0.27,3 of 18 (3.23)
S25L V29Y L30D W56N,0.53 / 0.30 / 0.51 / 0.12 / 0.49 / 0.55,2 of 18 (3.25)
S25L L30D W56N S62E,-0.33 / -0.25 / -0.26 / -0.14 / -0.61 / -0.20,0 of 18
S25L S26M V29E N35M W56N,nd / 1.16 / nd / 1.71 / 1.58 / 1.79,0 of 18
S25L S26P S38A W56N,-0.31 / -0.52 / -0.54 / -0.64 / -0.60 / -0.58,2 of 18 (3.44)
S25L V29E W56N S103M,-0.13 / 0.13 / -0.40 / -0.48 / -0.33 / -0.27,0 of 18
S25L K36T W56N,0.01 / -0.38 / -0.18 / -0.30 / -0.22 / -0.09,0 of 18
S25L Q27G V29M S38A W56E,-0.47 / -0.06 / -0.55 / 0.01 / -0.77 / -0.39,0 of 18
S25L S26Q W56N Q96D,-0.05 / -0.25 / -0.39 / -0.37 / -0.21 / 0.00,3 of 18 (3.10)
S25L S26E V29T W56N T59Q E61L,-0.23 / -0.20 / -0.41 / -0.44 / -0.45 / -0.28,1 of 18 (3.05)
S25L W56D S62D,0.09 / 0.02 / -0.05 / 0.07 / -0.10 / 0.16,3 of 18 (2.69)
S25V V29W W56N E61C,0.16 / -0.03 / -0.09 / -0.24 / -0.16 / -0.09,2 of 18 (2.63)
S25L L30P W56N S62K,0.58 / 0.44 / 0.43 / 0.42 / 0.59 / 0.57,1 of 18 (2.43)
S25F W56E E61C,-0.02 / -0.36 / -0.31 / 0.03 / -0.09 / 0.19,2 of 18 (2.32)
S25V S28Q W56E,0.10 / -0.25 / -0.27 / -0.35 / -0.26 / -0.25,0 of 18
S25F V29D W56D T59Q,-0.37 / -0.45 / -0.64 / -0.54 / -0.55 / -0.37,0 of 18
S25L S26Q V29E W56N T59Q E61L,-0.03 / -0.41 / -0.22 / -0.17 / -0.49 / -0.08,0 of 18
S25V V29M L30P W56D,0.03 / -0.21 / -0.17 / -0.16 / -0.15 / 0.04,1 of 18 (2.44)
S25L V29C S38N W56N,-0.09 / -0.24 / -0.37 / -0.27 / -0.41 / -0.08,1 of 18 (2.85)
S25V V29P W56N,-0.23 / -0.28 / -0.21 / -0.47 / -0.38 / -0.20,1 of 18 (3.27)
K24A S25L V29Q W56N,0.69 / -0.17 / 0.44 / -0.16 / 0.37 / -0.15,2 of 18 (1.55)
S25L E32Q W56H,-0.05 / 0.01 / 0.03 / -0.36 / 0.24 / -0.01,0 of 18
S25V V29H W56E E61C,0.49 / 0.44 / 0.17 / 0.48 / 0.55 / 0.48,2 of 18 (2.81)
S25L W56N Q96A,0.62 / 0.32 / 0.16 / 0.34 / 0.17 / 0.55,0 of 18
S25L V29E W56M,0.41 / 0.20 / 0.34 / 0.20 / 0.13 / 0.34,2 of 18 (2.98)
S25V S26P L30P W56E,0.09 / -0.37 / -0.34 / -0.48 / -0.34 / -0.24,0 of 18
S25L W56D S58N,0.67 / 0.64 / 0.35 / 0.54 / 0.50 / 0.80,0 of 18
S25L V29D W56N T59Q,-0.06 / -0.13 / -0.29 / -0.33 / -0.30 / 0.04,0 of 18
S25W Y31M W56E,0.29 / 0.08 / 0.36 / -0.07 / 0.42 / -0.11,0 of 18

Excerpt, the first 4 entries:

changes,"log10 Kd, replicates",signal with controls
S25V N35V W56D,0.01 / -0.03 / -0.02 / -0.18 / -0.03 / -0.02,2 of 18 (3.58)
S25V S26D W56E,-0.32 / -0.41 / -0.37 / -0.33 / -0.51 / -0.27,3 of 18 (3.23)
S25L V29Y L30D W56N,0.53 / 0.30 / 0.51 / 0.12 / 0.49 / 0.55,2 of 18 (3.25)
S25L L30D W56N S62E,-0.33 / -0.25 / -0.26 / -0.14 / -0.61 / -0.20,0 of 18

Empty control strains, which show no peptide, gave a signal in 4% of pairings with all light chain designs; the median was 2.64 and 95% of these signals were weaker than 1.59. No background was subtracted. Also given: how often the same scFv was detected with the empty control strains, with their mean in brackets.
The authors' rule: three or more of the six replicates give a measured affinity, fewer mean a poor binder.
The range of this assay differs from that of the first round, and the authors advise against merging the two.
The parent sequence was in this pool as ten entries: three were never detected, three once, and four in most replicates, with averages from 0.34 to 2.37.